Measured affinities in a library of Ab-95 light chain variants

Target peptide (SARS-CoV-2 spike, HR2 region): PDVDLGDISGINAS

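Phage display of a naive human antibody library on the peptide gave the parent. Library AAYL52 holds single substitutions and randomly drawn double and triple substitutions in the CDRs. In AlphaSeq, yeast of one mating type display the scFv and yeast of the other type display the target. Pairs that bind mate more often; barcode pairs of the diploids are counted by sequencing. Scores were corrected for input abundance and mapped to Kd with protein pairs of known affinity run in the same pool. There are three technical replicates.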

Ab-95 is the parent antibody, in scFv form: VH, then the linker GGGGSGGGGSGGGGS, then VL. The heavy chain is unchanged in all variants.
VH: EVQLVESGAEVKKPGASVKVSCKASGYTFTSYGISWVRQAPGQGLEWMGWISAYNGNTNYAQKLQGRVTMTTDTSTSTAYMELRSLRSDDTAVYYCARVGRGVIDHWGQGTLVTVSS
VL: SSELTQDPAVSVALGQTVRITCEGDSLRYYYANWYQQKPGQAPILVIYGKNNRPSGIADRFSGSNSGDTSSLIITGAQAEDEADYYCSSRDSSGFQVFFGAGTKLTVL

Substitutions are numbered in sequence along the VL above, starting at 1 (not Kabat).
Numbers give log10(Kd / nM), so 0 is 1 nM and 3 is 1 µM. Smaller is tighter.
A mean of the replicates is given; it leaves out those without a signal.
A pair that was not seen in that replicate is written "nd"; this usually means weak binding, but a binder can also be missed.
As a blank, each scFv also met three strains without target: over library AAYL52, 28% of these pairings were detected, typically at 3.91 and seldom below 2.90. Also given: how often the same scFv was detected with the empty control strains.
Parent in this assay: reference entry 2.31, copy in this library 2.25.

N33M+N52H+F95C: 3.91, 4.75, nd (mean 4.33; controls 1 of 9).
L27P+G49R+S89A: nd, nd, 4.16 (controls 0 of 9).
Y29F+A32T+Q96Y: nd, 3.12, 2.89 (mean 3.01; controls 0 of 9).
K50G+S92I+S93N: 3.01, 3.31, 2.76 (mean 3.02; controls 1 of 9).
E23V+S88F+S92Y: 3.15, 3.08, 2.95 (mean 3.06; controls 3 of 9).
S26N+R28G+G49C: 5.45, 3.51, nd (mean 4.48; controls 5 of 9).
E23P+P54G+S93D: 4.93, 3.38, nd (mean 4.16; controls 5 of 9).
Y31P+N51K+P54L: 3.39, 2.44, 3.78 (mean 3.20; controls 6 of 9).
G24V+D91V: 4.53, nd, nd (controls 1 of 9).
R28E+P54R+S55K: 3.21, nd, nd (controls 2 of 9).
Y29E+V97R: 2.70, 3.62, 2.34 (mean 2.89; controls 0 of 9).
D25N+Y29K+V97E: 3.34, 3.81, 4.19 (mean 3.78; controls 1 of 9).
G24Q+F95C+V97S: 4.08, nd, 3.46 (mean 3.77; controls 3 of 9).
P54Y+S55N+F98R: 3.54, nd, 3.19 (mean 3.36; controls 2 of 9).
E23W+D25Y+R53A: 3.45, 2.34, nd (mean 2.89; controls 2 of 9).
Y31T+S93H+F95A: 2.28, 2.43, 2.01 (mean 2.24; controls 2 of 9).
Y29G+N33Y+G94M: 5.24, nd, nd (controls 1 of 9).
E23V+N51H: 2.66, 2.72, 2.46 (mean 2.61; controls 2 of 9).
E23F+G24D: nd, nd, 2.95 (controls 1 of 9).
K50A+S88D+G94Q: 3.17, 2.31, 2.61 (mean 2.69; controls 0 of 9).
L27W+N33E+G49D: 5.77, nd, nd (controls 0 of 9).
Y31H+S55D+G94M: 2.49, 3.06, nd (mean 2.78; controls 2 of 9).
Y30W+N52S: 3.44, 2.82, 2.55 (mean 2.94; controls 1 of 9).
S26Q+S88H+R90Q: nd, nd, 4.30 (controls 3 of 9).
N33K+K50C+S88A: nd, 3.89, nd (controls 2 of 9).
G24A+F98Q: 3.10, 3.27, nd (mean 3.19; controls 2 of 9).
Y31F+N52V+S88E: 2.46, 2.77, 2.18 (mean 2.47; controls 3 of 9).
E23A+R53G: 3.74, nd, 4.37 (mean 4.06; controls 2 of 9).
Y31W+K50L+N51Q: 4.38, 4.17, nd (mean 4.28; controls 0 of 9).
Y31N+S55M+V97P: 1.58, 1.62, 1.22 (mean 1.47; controls 2 of 9).
D25G+L27T: 2.44, 1.84, 2.41 (mean 2.23; controls 2 of 9).
R28V+S92T: 2.94, 3.19, nd (mean 3.07; controls 5 of 9).
A32G+K50P+N51C: 4.25, nd, 3.22 (mean 3.74; controls 4 of 9).
Y30S+P54C+G94A: nd, 4.38, 2.37 (mean 3.37; controls 0 of 9).
Y29W+R90A+S92V: nd, 3.03, nd (controls 1 of 9).
L27F+S55H+S89C: 2.63, 3.04, 2.31 (mean 2.66; controls 2 of 9).
Y29A+Q96D: 4.08, 2.93, 3.13 (mean 3.38; controls 0 of 9).
R53T+S92Q+Q96D: 2.44, 2.89, 2.77 (mean 2.70; controls 0 of 9).
Y29N+Y30L+K50Y: 2.61, 2.23, 1.94 (mean 2.26; controls 0 of 9).
S26I+Y29D+V97L: nd, 3.98, 3.12 (mean 3.55; controls 5 of 9).
A32D+P54Y+F95Y: nd, nd, nd (controls 2 of 9).
R28K+K50C+S55Y: nd, nd, nd (controls 3 of 9).
N52H+P54H+D91N: nd, 5.66, nd (controls 2 of 9).
S26P+S55M+G94R: 4.11, 2.45, nd (mean 3.28; controls 2 of 9).
Y29H+D91R+F98L: 2.30, 2.24, 2.14 (mean 2.23; controls 2 of 9).
D25K+Y30N+Q96C: 1.61, 1.66, 1.44 (mean 1.57; controls 2 of 9).
Y29G+S88R+S92R: 1.94, 1.91, 1.29 (mean 1.71; controls 5 of 9).

For reference, 5 entries of the list once more:

changes,"replicates, log10 nM","log10 Kd (nM), mean",empty controls
R53T+S92Q+Q96D,"2.44, 2.89, 2.77",2.70,0 of 9
Y31N+S55M+V97P,"1.58, 1.62, 1.22",1.47,2 of 9
R28K+K50C+S55Y,"nd, nd, nd",nd,3 of 9
E23P+P54G+S93D,"4.93, 3.38, nd",4.16,5 of 9
Y29N+Y30L+K50Y,"2.61, 2.23, 1.94",2.26,0 of 9

Reference: Engelhart et al. 2022, doi:10.1038/s41597-022-01779-4. File: FLAb, binding data.